Test results published in patent publication US20240174690A1, “ANNULATED 2-AMINO-3-CYANO THIOPHENES AND DERIVATIVES FOR THE TREATMENT OF CANCER” (BOEHRINGER INGELHEIM INTERNATIONAL GMBH, priority 2021, published 2024).

What was measured:
Caco-2 cell monolayers = experiment: Caco-2 assay (permeability PappAB, PappBA, efflux ratio); settings: 10 μM test compound, pH 7.4
Method: The assay provides information on the potential of a compound to pass the cell membrane, on the extent of oral absorption as well as on whether the compound is actively transported by uptake and/or efflux transporters. Permeability measurements across polarized, confluent Caco-2 cell monolayers grown on permeable filter supports (Corning, catalog #3391) are used. […] Passive diffusion and/or active transport of compounds across the monolayer is measured in both apical to basolateral (a-b) and basolateral to apical (b-a) direction. a-b permeability (PappAB) represents drug absorption from the intestine into the blood and b-a permeability (PappBA) drug secretion from the blood back into the intestine via both passive permeability as well as active transport mechanisms mediated by efflux and uptake transporters that are expressed on the Caco-2 cells. […] Concentrations of test compounds in samples were measured by HPLC/MS/MS, samples from the donor compartment were diluted 1:50 (v:v) with assay buffer, samples from receiver compartment were measured without dilution.
Apparent permeabilities in a-b (PappAB) and b-a (PappBA) directions are calculated according to the formula: […]
Caco-2 efflux ratios (ER) are calculated as the ratio of PappBA/PappAB.

AsPC-1 cells = experiment: AsPC-1 CTG proliferation assay (120 h) (pancreatic cancer, G12D); settings: read-out: AsPC-1 IC50
Method: AsPC-1 CTG Proliferation Assay (120 h) (Pancreatic Cancer, G12D)
The CTG assay is designed to measure quantitatively the proliferation of AsPC-1 cells (ATCC […]), using the CellTiter Glow Assay Kit (Promega G7571). Cells are grown in RPMI medium (ATCC) supplemented with Fetal Calf Serum (Life Technologies, Gibco BRL, Cat. No. 10270-106). On “day 0” 2000 AsPC-1 cells are seeded in 60 μL RPMI ATCC+10% FCS+Penstrep in a 384-well plate, flat and clear bottom (Greiner, PNr. 781091). Cells are then incubated in the plates at 37° C. in a CO2 incubator overnight. On day 1, compounds (10 mM stock in DMSO) are added with the ECHO acoustic liquid handler system (Beckman Coulter), including DMSO controls. Plates are incubated for 120 h, and cell viability is measured using CellTiter-Glo luminescent cell viability reagent (Promega product code G7570). Viability (stated as percent of control) is defined as relative luminescence units RLU of each well divided by the RLU of cells in DMSO controls. IC50 values are determined from viability measurements by non-linear regression using a four-parameter model.

**Q.** Cc1ccncc1-c1cn(-c2cc(O[C@@H](C)[C@@H]3CCCN3C)nc(-c3noc4c3CCC[C@@]43CCCc4sc(N)c(C#N)c43)n2)nn1 was tested. Which Caco ER (Caco-2 cell monolayers) did it give?
**A.** 3.8

**Q.** What about the IC50 (AsPC-1 cells) of the same compound?
**A.** 1320 nM
